# Values of other authors as cited in patent publication US9085793B2, “Ex vivo methods to identify circulating drug metabolites with drug interaction potential” (XPD Consulting, LLC, priority 2012, dated 2015).
# Sequences of proteins named here, by UniProt entry; tags and fusion partners are left off.
# UniProt P11712, whole entry: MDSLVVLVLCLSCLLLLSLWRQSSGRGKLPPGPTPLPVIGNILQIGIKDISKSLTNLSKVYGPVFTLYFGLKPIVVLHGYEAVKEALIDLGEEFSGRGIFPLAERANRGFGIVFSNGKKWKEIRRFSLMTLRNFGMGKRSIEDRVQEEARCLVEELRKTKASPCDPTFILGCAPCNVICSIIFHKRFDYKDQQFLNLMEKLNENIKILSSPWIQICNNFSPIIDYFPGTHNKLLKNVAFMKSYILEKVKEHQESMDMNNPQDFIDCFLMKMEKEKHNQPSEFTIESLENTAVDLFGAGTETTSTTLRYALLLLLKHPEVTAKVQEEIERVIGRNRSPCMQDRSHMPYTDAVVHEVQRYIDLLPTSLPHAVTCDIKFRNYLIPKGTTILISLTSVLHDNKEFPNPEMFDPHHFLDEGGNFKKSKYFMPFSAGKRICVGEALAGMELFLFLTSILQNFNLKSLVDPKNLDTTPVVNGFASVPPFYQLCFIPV
# Biological target: CYP2C9 (Homo sapiens, UniProt P11712)
# Details: human hepatocytes
smiles,measurement,setting,value
OC(Cn1cncn1)(Cn1cncn1)c1ccc(F)cc1F [Fluconazole],IC50,"read-out: IC50 Medium, medium",54 ± 2.95 µM
same,IC50,"read-out: IC50 Plasma, human plasma",14.3 ± 1.27 µM

# Read-outs that look alike come from different tables or passages of the source.
